Test results taken from the CheMixHub viscosity set.

Legend:
[1] = xn = mol fraction of the nth substance listed

CCC[N+](CCC)(CCC)CCC.[OH-]
viscosity [mPa·s]
Conditions | 298.15 K | 303.15 K | 308.15 K | 313.15 K
100 kPa | 6.1 | 6.01 | 5.88 | 5.66
101 kPa | 6.1 | 6.01 | 5.88 | 5.66

CCC[N+](CCC)(CCC)CCC.[OH-] + CC(=O)N(C)C
viscosity [mPa·s], [1], 101 kPa
Conditions | 298.15 K | 303.15 K | 308.15 K | 313.15 K
x1 = 0.0153 | 1.15 | 1.07 | 0.98 | 0.92
x1 = 0.0476 | 1.58 | 1.47 | 1.36 | 1.26
x1 = 0.0826 | 2.02 | 1.9 | 1.73 | 1.6
x1 = 0.1205 | 2.43 | 2.29 | 2.12 | 1.95
x1 = 0.1617 | 2.85 | 2.68 | 2.52 | 2.33
x1 = 0.1837 | 3.06 | 2.89 | 2.71 | 2.52
x1 = 0.2308 | 3.45 | 3.27 | 3.09 | 2.87
x1 = 0.3104 | 3.99 | 3.82 | 3.62 | 3.39
x1 = 0.403 | 4.46 | 4.28 | 4.09 | 3.87
x1 = 0.5122 | 4.84 | 4.68 | 4.48 | 4.24
x1 = 0.6429 | 5.15 | 4.99 | 4.81 | 4.58
x1 = 0.7453 | 5.35 | 5.2 | 5.03 | 4.79
x1 = 0.863 | 5.66 | 5.52 | 5.37 | 5.15

CCC[N+](CCC)(CCC)CCC.[OH-] + CS(C)=O
viscosity [mPa·s], [1], 100 kPa
Conditions | 298.15 K | 303.15 K | 308.15 K | 313.15 K
x1 = 0.0197 | 2.25 | 2.07 | 1.93 | 1.84
x1 = 0.0509 | 2.61 | 2.45 | 2.34 | 2.25
x1 = 0.0807 | 2.94 | 2.78 | 2.72 | 2.64
x1 = 0.1151 | 3.27 | 3.12 | 3.1 | 3.03
x1 = 0.1466 | 3.58 | 3.43 | 3.44 | 3.38
x1 = 0.1786 | 3.88 | 3.74 | 3.76 | 3.74
x1 = 0.2648 | 4.58 | 4.45 | 4.52 | 4.5
x1 = 0.3564 | 5.18 | 5.1 | 5.14 | 5.15
x1 = 0.4034 | 5.45 | 5.36 | 5.41 | 5.41
x1 = 0.4872 | 5.84 | 5.76 | 5.79 | 5.77
x1 = 0.5638 | 6.11 | 6.02 | 6.05 | 6.02
x1 = 0.6341 | 6.27 | 6.2 | 6.2 | 6.16
x1 = 0.6779 | 6.34 | 6.27 | 6.25 | 6.2
x1 = 0.7332 | 6.37 | 6.34 | 6.29 | 6.21
x1 = 0.7945 | 6.38 | 6.34 | 6.27 | 6.19
x1 = 0.8432 | 6.36 | 6.28 | 6.22 | 6.13
x1 = 0.8902 | 6.32 | 6.24 | 6.14 | 6.04
x1 = 0.9672 | 6.17 | 6.1 | 5.99 | 5.81

CCC[N+](CCC)(CCC)CCC.[OH-] + O
viscosity [mPa·s], [1], 101 kPa
Conditions | x1 = 0.00227 | x1 = 0.00464 | x1 = 0.009747 | x1 = 0.01539 | x1 = 0.02167 | x1 = 0.02868 | x1 = 0.03658
298.15 K | 1.023 | 1.211 | 1.399 | 1.901 | 2.402 | 3.469 | 4.537
303.15 K | 0.9005 | 1.062 | 1.224 | 1.634 | 2.043 | 2.825 | 3.607
313.15 K | 0.7316 | 0.8475 | 0.9633 | 1.246 | 1.529 | 2.062 | 2.594
323.15 K | 0.6056 | 0.6935 | 0.7819 | 0.9849 | 1.189 | 1.545 | 1.9

CCC[N+](CCC)(CCC)CCC.[Br-] + OCC(O)CO
[1], 101 kPa
Conditions | viscosity [mPa·s]
294 K, x1 = 0.33 | 86.1
294.4 K, x1 = 0.25 | 55.5
296.8 K, x1 = 0.2 | 40.8
303.6 K, x1 = 0.25 | 41.2
303.8 K, x1 = 0.33 | 58.8
313.7 K, x1 = 0.33 | 35.5

CCC[N+](CCC)(CCC)CCC.[Br-] + OCCO
[1], 101 kPa
Conditions | viscosity [mPa·s]
294 K, x1 = 0.17 | 978
294.8 K, x1 = 0.2 | 882.9
302.8 K, x1 = 0.17 | 524.4
303.4 K, x1 = 0.2 | 561
304 K, x1 = 0.25 | 685.4

CCC[N+](CCC)(CCC)CCC.[Br-] + OCCOCCOCCO
[1], 101 kPa
Conditions | viscosity [mPa·s]
296.2 K, x1 = 0.2 | 80.6
303.4 K, x1 = 0.2 | 61.7
303.6 K, x1 = 0.25 | 74.3
304 K, x1 = 0.29 | 78.3
313.3 K, x1 = 0.25 | 46.9
313.9 K, x1 = 0.29 | 49.1
314.1 K, x1 = 0.2 | 37.7
